We go through 6 compounds from patent publication US7001983B1, “Antipathogenic synthetic peptides and compositions comprising them” (priority 1997, dated 2006).

Several values for one entry are separate records, joined by “and”; a condition that tells them apart may be missing. Equal values may be shown once.

The test system of one series is Escherichia coli D21. The settings on record: 100% inhibition of growth after 18–20 h.
The subject of series [1] is Pseudomonas aeruginosa ATCC 27853. The settings on record: 100% inhibition of growth after 18–20 h.
The test system of another series is Bacillus megaterium Bm11. The settings on record: 100% inhibition of growth after 18–20 h.
The subject of series [2] is Cryptococcus neoformans (IP960-67). The experiment in a line: Antifungal activity (MIC). Type of series: cell-based. The settings on record: 100% inhibition of growth after 48 h at 30° C. The source says:
(§1) The fungi used were: Candida albicans (IP886-65) and Cryptococcus neoformans (IP960-67).

Series [3] has as its system Candida albicans (IP886-65). The experiment in a line: Antifungal activity (MIC). In kind it is cell-based. The conditions noted are these: 100% inhibition of growth after 48 h at 30° C.
Excerpt: as §1

For series [4], the system named is Acinetobacter calcoaceticus Ac11. Type of series: cell-based. The settings on record: 100% inhibition of growth after 18–20 h.
Series [5] has as its system Salmonella typhimurium LT2. The experiment in a line: Antibacterial activity (MIC), growth inhibition in LB medium. Type of series: cell-based. The conditions noted are these: 100% inhibition of growth after 18–20 h. From the text:
(viii) Antibacterial activity of the peptides.

Series [6] has as its system Micrococcus Iuteus ATCC 9341. The description is as above. The conditions noted are these: 100% inhibition of growth after 18–20 h.
Series [7] relates to human red blood cells (hRBC). Briefly: Hemolysis of human red blood cells. The settings on record: up to 50 μM.
In series [8] the test system is Bacillus subtilis ATCC 6051. In kind it is cell-based. The settings on record: 100% inhibition of growth after 18–20 h.

Regarding `CC[C@H](C)[C@H](NC(=O)[C@H](CCCCN)NC(=O)[C@H]1CCCN1C(=O)[C@@H](NC(=O)[C@H](CC(C)C)NC(=O)[C@H](C)NC(=O)[C@H](Cc1ccccc1)NC(=O)[C@H](Cc1ccccc1)NC(=O)CN)[C@@H](C)CC)C(=O)N[C@H](C(=O)N[C@@H](CO)C(=O)N[C@@H](CO)C(=O)N1CCC[C@H]1C(=O)N[C@@H](CC(C)C)C(=O)N[C@@H](Cc1ccccc1)C(=O)N[C@@H](CCCCN)C(=O)N[C@H](C(=O)N[C@H](CC(C)C)C(=O)N[C@H](CC(C)C)C(=O)N[C@@H](CO)C(=O)N[C@@H](C)C(=O)N[C@H](C(=O)NCC(=O)N[C@@H](CO)C(=O)N[C@@H](C)C(=O)N[C@@H](CC(C)C)C(=O)N[C@@H](CO)C(=O)N[C@@H](CO)C(=O)N[C@@H](CO)C(=O)NCC(=O)NCC(=O)N[C@@H](CCC(N)=O)C(=O)N[C@@H](CCC(=O)O)C(=O)O)C(C)C)[C@@H](C)O)[C@@H](C)CC` [Peptide 16, [D]P^7L^18L^19-par], in the series on Escherichia coli D21, the “Minimal Inhibitory Concentration E. coli (D21)” value amounted to 100 µM. In addition, the “Minimal Inhibitory Concentration P. aeruginosa (ATCC 27853)” value in [1] was above 100 µM. For the same compound, the “Minimal Inhibitory Concentration B. megaterium (Bm11)” value in the series on Bacillus megaterium Bm11 came to 50 µM. In addition, the “Minimal Inhibitory Concentration Cryptococcus neoformans (IP960-67)” value in [2] amounted to 150 µM. The “Minimal Inhibitory Concentration Candida albicans (IP886-65)” value in series [3] came to 120 µM. In addition, the “Minimal Inhibitory Concentration A. calcoaceticus (Ac11)” value in series [4] is 100 µM. Further, the “Minimal Inhibitory Concentration S. typhimurium (LT2)” value in series [5] is above 100 µM.
On to `CC[C@@H](C)[C@@H](NC(=O)[C@H](CC(C)C)NC(=O)[C@H](C)NC(=O)[C@@H]1CCCN1C(=O)[C@H](CC(C)C)NC(=O)CNC(=O)[C@@H](NC(=O)[C@@H](NC(=O)[C@H](CC(C)C)NC(=O)[C@H](NC(=O)[C@H](CCCCN)NC(=O)[C@H](CC(C)C)NC(=O)[C@H](NC(=O)[C@H](C)NC(=O)CNC(=O)[C@@H](NC(=O)CN)[C@@H](C)CC)C(C)C)C(C)C)[C@@H](C)O)[C@@H](C)O)C(=O)N[C@@H](CO)C(=O)N[C@@H](Cc1c[nH]c2ccccc12)C(=O)N[C@H](C(=O)N[C@H](CCCCN)C(=O)N[C@@H](CCCNC(=N)N)C(=O)N[C@@H](CCCCN)C(=O)N[C@@H](CCCNC(=N)N)C(=O)N[C@@H](CCC(N)=O)C(=O)N[C@@H](CCC(N)=O)C(N)=O)[C@@H](C)CC` [Peptide 18, [D]-V^5V^8I^17K^21-mel], for which, in the series with Escherichia coli D21, the “Minimal Inhibitory Concentration E. coli (D21)” value came out at 12 µM. In addition, in the series with Bacillus megaterium Bm11, the “Minimal Inhibitory Concentration B. megaterium (Bm11)” value was determined as 0.8 µM. The “Minimal Inhibitory Concentration M. luteus (ATCC 9341)” value in series [6] worked out at 25 µM. Moreover, the “Minimal Inhibitory Concentration A. calcoaceticus (Ac11)” value in series [4] was 12 µM. The “hemolytic activity up to the maximum concentration tested” value in [7] is recorded as “practically devoid of hemolytic activity”. For the same compound, the “Minimal Inhibitory Concentration B. subtilis (ATCC 6051)” value in series [8] amounted to 3.5 µM.
For `CC[C@H](C)[C@H](NC(=O)[C@H](CCCCN)NC(=O)[C@@H]1CCCN1C(=O)[C@@H](NC(=O)[C@H](CC(C)C)NC(=O)[C@H](C)NC(=O)[C@H](Cc1ccccc1)NC(=O)[C@H](Cc1ccccc1)NC(=O)CN)[C@@H](C)CC)C(=O)N[C@H](C(=O)N[C@@H](CO)C(=O)N[C@@H](CO)C(=O)N1CCC[C@H]1C(=O)N[C@@H](CC(C)C)C(=O)N[C@@H](Cc1ccccc1)C(=O)N[C@@H](CCCCN)C(=O)N[C@H](C(=O)N[C@H](CC(C)C)C(=O)N[C@H](CC(C)C)C(=O)N[C@@H](CO)C(=O)N[C@@H](C)C(=O)N[C@H](C(=O)NCC(=O)N[C@@H](CO)C(=O)N[C@@H](C)C(=O)N[C@@H](CC(C)C)C(=O)N[C@@H](CO)C(=O)N[C@@H](CO)C(=O)N[C@@H](CO)C(=O)NCC(=O)NCC(=O)N[C@@H](CCC(N)=O)C(=O)N[C@@H](CCC(=O)O)C(=O)O)C(C)C)[C@@H](C)O)[C@@H](C)CC` [Peptide 15, [D]L^18L^19-par], the “Minimal Inhibitory Concentration E. coli (D21)” value in the series on Escherichia coli D21 is 15 µM. In series [1], the “Minimal Inhibitory Concentration P. aeruginosa (ATCC 27853)” value was determined as 60 µM. The “Minimal Inhibitory Concentration B. megaterium (Bm11)” value in the series on Bacillus megaterium Bm11 was 1.7 µM. Also, the “Minimal Inhibitory Concentration A. calcoaceticus (Ac11)” value in [4] was 3.5 µM. For the same compound, the “Minimal Inhibitory Concentration S. typhimurium (LT2)” value in series [5] amounted to 60 µM.
As for `CC[C@H](C)[C@H](NC(=O)[C@H](CCCCN)NC(=O)[C@H]1CCCN1C(=O)[C@@H](NC(=O)[C@H](CC(C)C)NC(=O)[C@H](C)NC(=O)[C@H](Cc1ccccc1)NC(=O)[C@H](Cc1ccccc1)NC(=O)CN)[C@@H](C)CC)C(=O)N[C@H](C(=O)N[C@@H](CO)C(=O)N[C@@H](CO)C(=O)N1CCC[C@H]1C(=O)N[C@@H](CC(C)C)C(=O)N[C@@H](Cc1ccccc1)C(=O)N[C@@H](CCCCN)C(=O)N[C@H](C(=O)N[C@H](CC(C)C)C(=O)N[C@H](CC(C)C)C(=O)N[C@@H](CO)C(=O)N[C@@H](C)C(=O)N[C@H](C(=O)O)C(C)C)[C@@H](C)O)[C@@H](C)CC` [Peptide 3, [D]P^7L^18L^19[1-22]-par], the “Minimal Inhibitory Concentration E. coli (D21)” value with Escherichia coli D21 came to 130 µM. For the same compound, the “Minimal Inhibitory Concentration P. aeruginosa (ATCC 27853)” value in [1] was above 130 µM. Also, in the series with Bacillus megaterium Bm11, the “Minimal Inhibitory Concentration B. megaterium (Bm11)” value was 30 µM. Besides, the “Minimal Inhibitory Concentration A. calcoaceticus (Ac11)” value in series [4] is above 130 µM. Also, the “Minimal Inhibitory Concentration S. typhimurium (LT2)” value in series [5] was above 130 µM.
Regarding `CC[C@H](C)[C@H](NC(=O)[C@H](CCCCN)NC(=O)[C@H]1CCCN1C(=O)[C@@H](NC(=O)[C@H](CC(C)C)NC(=O)[C@H](C)NC(=O)[C@H](Cc1ccccc1)NC(=O)[C@H](Cc1ccccc1)NC(=O)CN)[C@@H](C)CC)C(=O)N[C@H](C(=O)N[C@@H](CO)C(=O)N[C@@H](CO)C(=O)N1CCC[C@H]1C(=O)N[C@@H](CC(C)C)C(=O)N[C@@H](Cc1ccccc1)C(=O)N[C@@H](CCCCN)C(=O)N[C@H](C(=O)N[C@@H](CC(C)C)C(=O)N[C@@H](CC(C)C)C(=O)N[C@@H](CO)C(=O)N[C@@H](C)C(=O)N[C@H](C(=O)NCC(=O)N[C@@H](CO)C(=O)N[C@@H](C)C(=O)N[C@@H](CC(C)C)C(=O)N[C@@H](CO)C(=O)N[C@@H](CO)C(=O)N[C@@H](CO)C(=O)NCC(=O)NCC(=O)N[C@@H](CCC(N)=O)C(=O)N[C@@H](CCC(=O)O)C(=O)O)C(C)C)[C@@H](C)O)[C@@H](C)CC` [Peptide 13, [D]P^7-par], the “Minimal Inhibitory Concentration E. coli (D21)” value with Escherichia coli D21 came out at 30 µM. In series [1], the “Minimal Inhibitory Concentration P. aeruginosa (ATCC 27853)” value is above 100 µM. Also, the “Minimal Inhibitory Concentration B. megaterium (Bm11)” value in the series with Bacillus megaterium Bm11 is 3.5 µM. Moreover, the “Minimal Inhibitory Concentration A. calcoaceticus (Ac11)” value in [4] was 15 µM. The “Minimal Inhibitory Concentration S. typhimurium (LT2)” value in series [5] was above 100 µM.
As to `CC[C@H](C)[C@H](NC(=O)CN)C(=O)NCC(=O)N[C@@H](C)C(=O)N[C@H](C(=O)N[C@@H](CC(C)C)C(=O)N[C@@H](CCCCN)C(=O)N[C@H](C(=O)N[C@@H](CC(C)C)C(=O)N[C@H](C(=O)N[C@H](C(=O)NCC(=O)N[C@@H](CC(C)C)C(=O)N1CCC[C@H]1C(=O)N[C@@H](C)C(=O)N[C@@H](CC(C)C)C(=O)N[C@H](C(=O)N[C@@H](CO)C(=O)N[C@@H](Cc1c[nH]c2ccccc12)C(=O)N[C@H](C(=O)N[C@@H](CCCCN)C(=O)N[C@@H](CCCNC(=N)N)C(=O)N[C@@H](CCCCN)C(=O)N[C@@H](CCCNC(=N)N)C(=O)N[C@@H](CCC(N)=O)C(=O)N[C@@H](CCC(N)=O)C(N)=O)[C@@H](C)CC)[C@@H](C)CC)[C@@H](C)O)[C@@H](C)O)C(C)C)C(C)C` [Melittin, reference compound], the “Minimal Inhibitory Concentration E. coli (D21)” value in the series on Escherichia coli D21 came out at 5 µM. The “Minimal Inhibitory Concentration B. megaterium (Bm11)” value with Bacillus megaterium Bm11 was 0.3 µM. Further, the “Minimal Inhibitory Concentration B. subtilis (ATCC 6051)” value in [8] is 0.6 µM and 0.4 µM.
